In one assay the test system is cyclooxygenase (PGE2). The assay is described as follows: resident murine peritoneal macrophage assay, PGE2. The conditions noted are these: Mus musculus, read-out: IC50 PGE2.
Another assay deals with 5-lipoxygenase (LTC4). The assay is described as follows: resident murine peritoneal macrophage assay, LTC4. The conditions noted are these: Mus musculus, read-out: IC50 LTC4. The format is cell-based, mouse (Swiss Webster).

As a reminder, the IC50 is the concentration that inhibits the measured activity by half. For the molecule `NC1=NN(c2cccc(C(F)(F)F)c2)CC1` [BW 755c, reference compound], the IC50 in the assay on cyclooxygenase (PGE2) is 1040 nM; in the assay on 5-lipoxygenase (LTC4), 210 nM.

These data come from US5242945A, “Tetronic and thiotetronic acid derivatives as phospholipase A2 inhibitors” (American Home Products Corporation, priority 1991, dated 1993).
